Earlier results on one substance are cited in patent US20260031189A1, “METHOD AND SYSTEMS FOR PREDICTION OF HLA CLASS II-SPECIFIC EPITOPES AND CHARACTERIZATION OF CD4+ T CELLS” (BioNTech US Inc., priority 2022, published 2026).

The conditions of the data set: more than 25 clinical trials; cited from earlier work.

Take poly-ICLC: the toxicity profile result was “relatively benign toxicity profile”.
